Measured affinities in a library of Ab-14 heavy chain variants

Reference: Engelhart et al. 2022, doi:10.1038/s41597-022-01779-4. File: FLAb, binding data.

Binding partner: SARS-CoV-2 spike HR2 peptide, sequence PDVDLGDISGINAS.

Parent scFv Ab-14: VH joined to VL by the linker GGGGSGGGGSGGGGS. Changes lie in the heavy chain CDRs alone.
VH: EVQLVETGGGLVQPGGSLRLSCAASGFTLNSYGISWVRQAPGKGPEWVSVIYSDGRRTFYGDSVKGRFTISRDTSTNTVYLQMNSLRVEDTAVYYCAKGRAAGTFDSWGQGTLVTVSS
VL: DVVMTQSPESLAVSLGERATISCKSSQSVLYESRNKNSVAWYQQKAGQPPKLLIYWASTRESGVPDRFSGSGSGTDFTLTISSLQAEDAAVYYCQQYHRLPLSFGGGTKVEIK

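Phage display of a naive human antibody library on the peptide gave the parent. AAYL49 was designed without a model: most single CDR substitutions and a random sample of double and triple ones. AlphaSeq pools MATa yeast showing the antibodies with MATalpha yeast showing the peptide. The frequency of each diploid, read from paired DNA barcodes, reflects how well the two displayed proteins bind. A regression on co-assayed BCL2-family reference pairs converts the normalised counts of each replicate to an apparent Kd. The assay was run in three technical replicates.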

Each variant is given by its three heavy chain CDRs, as the data file delimits them; those of the parent are GFTLNSYGIS, VIYSDGRRTFYGDSVK, GRAAGTFDS.
Scale: log10 of Kd in nM, estimated from mating counts; low values are strong binders.
The mean shown is taken over the replicates in which the pair was detected.
"n.d." marks a missing value. The strain was present, yet no cells mated with the target were sequenced in that replicate, which points to weak or no binding.
Three control strains display no target. For library AAYL49, 15% of the pairings with them gave a signal, with a median of 4.06 and one signal in twenty below 2.83, so weak values seen in few replicates may be background. The control count says in how many pairings with the empty strains this scFv gave a signal, with their mean in brackets.

CDR-H1	CDR-H2	CDR-H3	log10 Kd (nM) by replicate	mean, log10 nM	signal with controls
GLTLNSYGIS	VIYSDFRRTFDGDSVK	GRAAGTFDS	n.d. n.d. n.d.	n.d.	0 of 9
GFTLNSDGIS	VINSDGRRTFYSDSVK	GRAAGTFDS	n.d. n.d. 5.65	5.65	1 of 9 (3.69)
GFTLNSYGCS	VIYQDGRRTFYGDSVK	GRAHGTFDS	n.d. n.d. n.d.	n.d.	1 of 9 (2.55)
GFTLNSYGIS	VIYMDGRRTFWGDLVK	GRAAGTFDS	n.d. n.d. n.d.	n.d.	0 of 9
GHTLNSYGIS	VIYSDGRRTFYGDTVK	GRAAGTFCS	n.d. n.d. n.d.	n.d.	2 of 9 (3.81)
GFWLNSYGIS	VIYSDGRRTFYGDSHK	GRAAGTFDS	4.79 n.d. 3.67	4.23	3 of 9 (3.83)
GFPLNSYGIS	VIYSDGRRTLYTDSVK	GRAAGTFDS	4.02 5.45 5.77	5.08	3 of 9 (3.56)
IFTLNSYGIS	VIYSDIRRTLYGDSVK	GRAAGTFDS	n.d. n.d. n.d.	n.d.	1 of 9 (3.00)
GMTYNSNGIS	VIYSDGRRTFYGDSVK	GRAAGTFDS	n.d. n.d. 4.76	4.76	2 of 9 (3.54)
GFTDNMYGIS	VIYSDGRRTFYGDSVK	GPAAGTFDS	n.d. n.d. n.d.	n.d.	0 of 9
GFTQNSYGIS	VIGSDGRRTFYGDSVK	GRAAGTFDS	n.d. n.d. n.d.	n.d.	0 of 9
GFTLNSYQIS	VIYSDGRRTFYGDNVK	GRAAGTNDS	n.d. n.d. n.d.	n.d.	3 of 9 (4.76)
GFTLNSYGIS	VIFSDGRRTFYGDSVK	GRANGFFDS	n.d. n.d. 3.48	3.48	0 of 9
GFALNSYGIS	VQYSDGRRTFYGFSVK	GRAAGTFDS	n.d. n.d. n.d.	n.d.	1 of 9 (2.89)
GFTLNSLEIS	VIYSDGRYTFYGDSVK	GRAAGTFDS	n.d. n.d. n.d.	n.d.	0 of 9
GLTLNSYGIS	VIFSDGRRWFYGDSVK	GRAAGTFDS	n.d. n.d. 2.20	2.20	1 of 9 (2.86)
GFTLNSYTIS	VQYSDGRRTFYGDSVK	GRAAGTFDS	n.d. n.d. n.d.	n.d.	0 of 9
GFTLNSYGIS	VIYLDGRRTIYGDSVK	RRAAGTFDS	n.d. 3.55 n.d.	3.55	4 of 9 (4.37)
GFILNKYGIS	YIYSDGRRTFYGDSVK	GRAAGTFDS	3.20 n.d. 3.79	3.50	3 of 9 (4.58)
GFTLNSYGKS	VIYHVGRRTFYGDSVK	GRAAGTFDS	n.d. n.d. n.d.	n.d.	0 of 9
GFTLLSYGIC	VIYSDGRRTFYGDSVK	GRAAGVFDS	5.65 n.d. n.d.	5.65	1 of 9 (3.71)
GFTLTTYGIS	VCYSDGRRTFYGDSVK	GRAAGTFDS	3.63 5.06 n.d.	4.35	1 of 9 (3.24)
GFTLNSYGIS	VIYSDGRRTMYGDSVK	GRAAGPFDS	n.d. n.d. 4.10	4.10	2 of 9 (2.83)
GFTLNSYGIS	VIYSDGRRDFYGDSVK	GRAAGTFDK	n.d. n.d. n.d.	n.d.	0 of 9
GFTMNSYGIS	VIHADGRRTFYGDSVK	GRAAGTFDS	1.86 1.70 1.69	1.75	2 of 9 (3.04)
GFTLNSYGIS	VIYSDDRRKFEGDSVK	GRAAGTFDS	n.d. n.d. n.d.	n.d.	0 of 9
GFTLNSYGTS	VIYSDGRRTFYGDSVK	ARAAGTFDS	n.d. n.d. n.d.	n.d.	2 of 9 (4.18)
GFTLNSYGIS	VIYHDGDRTDYGDSVK	GRAAGTFDS	3.83 n.d. n.d.	3.83	0 of 9
GFTLNSYGVS	KIYSDGRRTFYPDSVK	GRAAGTFDS	n.d. n.d. n.d.	n.d.	0 of 9
GFTLNSYGIS	VIYSWGRRTRYGDSVK	GRAAGTFDS	n.d. n.d. n.d.	n.d.	0 of 9
GFTLYSYGIS	VIYSDGRRTHYGDSVK	GSAAGTFDS	2.54 2.56 2.67	2.59	4 of 9 (5.24)
GFPLNSYGIS	VIYSQGRRTFYGDSVK	GRAAGTFDS	4.85 n.d. n.d.	4.85	1 of 9 (5.32)
GFTLNMYGIS	VIYSDGRGTFYGDSVK	GRAAGLFDS	n.d. 3.43 n.d.	3.43	0 of 9
GFTLNSYGIS	VIYSDGRRQFYGDSVL	GRAAGTYDS	n.d. n.d. n.d.	n.d.	0 of 9
GFTLNSYGIS	VIYHDGRRDFYGDSVK	GRHAGTFDS	3.75 2.47 2.48	2.90	2 of 9 (3.70)
GFTLNSYGIS	CIYSDGRRTLYGDSVK	GRAAGTFDH	n.d. n.d. n.d.	n.d.	0 of 9
GFTLNSYGIS	VIYSRGRRTWYGDSVK	GRAAGTFLS	n.d. n.d. n.d.	n.d.	1 of 9 (2.65)
GFTLNSYGIS	VIISDGRRTFYGASVP	GRAAGTFDS	n.d. n.d. n.d.	n.d.	1 of 9 (1.22)
GFTLNSYGIM	VIHSDGRRTFYGDSVK	GRAAGYFDS	n.d. n.d. n.d.	n.d.	0 of 9
GFKLNSYGIS	VIYSDGRREFYGDSVK	TRAAGTFDS	n.d. 4.09 4.90	4.50	1 of 9 (3.68)
GFTLNSYGIS	VIYQDGRRTFYGDSVK	GNAGGTFDS	3.81 n.d. n.d.	3.81	0 of 9
GFTLNSYGIP	VIYSDGRNTFYGDSVK	CRAAGTFDS	n.d. n.d. n.d.	n.d.	1 of 9 (4.15)
GFTLNSYGIS	VIKSDMRRTFWGDSVK	GRAAGTFDS	n.d. n.d. n.d.	n.d.	1 of 9 (4.32)
GFTLNSYGIS	VIYTDGRRSFYGLSVK	GRAAGTFDS	n.d. 4.99 n.d.	4.99	2 of 9 (3.65)